In ChEMBL document CHEMBL1156451 (J Biol Chem, 2007):

Assays:
Type in all cases: functional
Escherichia coli [1] = assay: Antibacterial activity against Escherichia coli K12 ATCC 23716 in 10% Luria-Bertani medium/90% Hepes buffer at pH 7.0
Escherichia coli [2] = assay: Antibacterial activity against Escherichia coli ATCC 25922 after 24 hrs in Mueller-Hinton broth medium; details: ATCC 25922, 24 h
Staphylococcus aureus = assay: Antibacterial activity against methicillin-resistant Staphylococcus aureus ATCC 43300 after 24 hrs in Mueller-Hinton broth medium; details: ATCC 43300, 24 h
Pseudomonas aeruginosa = assay: Antibacterial activity against Pseudomonas aeruginosa CUN 4158-02 after 24 hrs in Mueller-Hinton broth medium
Escherichia coli [3] = assay: Antibacterial activity against Escherichia coli K12 ATCC 23716 after 24 hrs in Mueller-Hinton broth medium; details: K12, 24 h

**Q.** Which results are given for `CC[C@H](C)[C@H](NC(=O)CN)C(=O)NCC(=O)N[C@@H](C)C(=O)N[C@H](C(=O)N[C@@H](CC(C)C)C(=O)N[C@@H](CCCCN)C(=O)N[C@H](C(=O)N[C@@H](CC(C)C)C(=O)N[C@H](C(=O)N[C@H](C(=O)NCC(=O)N[C@@H](CC(C)C)C(=O)N1CCC[C@H]1C(=O)N[C@@H](C)C(=O)N[C@@H](CC(C)C)C(=O)N[C@H](C(=O)N[C@@H](CO)C(=O)N[C@@H](Cc1c[nH]c2ccccc12)C(=O)N[C@H](C(=O)N[C@@H](CCCCN)C(=O)N[C@@H](CCCNC(=N)N)C(=O)N[C@@H](CCCCN)C(=O)N[C@@H](CCCNC(=N)N)C(=O)N[C@@H](CCC(N)=O)C(=O)N[C@@H](CCC(N)=O)C(N)=O)[C@@H](C)CC)[C@@H](C)CC)[C@@H](C)O)[C@@H](C)O)C(C)C)C(C)C` [MELITTIN]?
**A.** MIC (Escherichia coli [1]): 12.5 µg/mL (≈ 4.39 µM); MIC (Escherichia coli [2]): 4 µg/mL (≈ 1.41 µM); MIC (Staphylococcus aureus): 2 µg/mL (≈ 0.703 µM); MIC (Pseudomonas aeruginosa): 16 µg/mL (≈ 5.62 µM); MIC (Escherichia coli [3]): 4 µg/mL (≈ 1.41 µM)

Converted amounts (≈) assume the structure as drawn.
